The subject of one test is Rice Leydig tumor cells. The test is described as follows: Tumor growth inhibition, Rice Leydig tumor in SCID mice.
For test [1], the system named is Human microvessel endothelial cell. Nature of the test: Human microvessel endothelial cell proliferation and migration. To be noted: human microvessel endothelial cells, αvβ3 dependent. Format: cell-based.
For another test, the system named is LLC tumor. Nature of the test: Tumor growth inhibition, LLC tumor in mice.
Another test concerns angiogenesis. The test is described as follows: Mouse corneal micropocket assay. Format: in vivo. To be noted: oral administration, 40 mg/kg.
Test [2] concerns the target Human vitronectin receptor (αvβ3) (Homo sapiens, UniProt P05106+P06756). The test is described as follows: Vitronectin adhesion assay, solid phase receptor assay. To be noted: read-out: IC50 αvβ3; inhibition of biotinylated vitronectin binding to purified receptor, in vitro. As to the method:
Vitronectin Adhesion Assay Materials
Human vitronectin receptor (αvβ3) was purified from human placenta as previously described [Pytela et al., Methods in Enzymology 144:475-489 (1987)]. Human vitronectin was purified from fresh frozen plasma as previously described [Yatohgo et al., Cell Structure and Function, 13:281-292 (1988)]. Biotinylated human vitronectin was prepared by coupling NHS-biotin from Pierce Chemical Company (Rockford, Ill.) to purified vitronectin as previously described [Charo et al., J. Biol. Chem., 266(3):1415-1421 (1991)]. Assay buffer, OPD substrate tablets, and RIA grade BSA were obtained from Sigma (St. Louis, Mo.). Anti-biotin antibody was obtained from Calbiochem (La Jolla, Calif.). Linbro microtiter plates were obtained from Flow Labs (McLean, Va.). ADP reagent was obtained from Sigma (St. Louis, Mo.).
Solid Phase Receptor Assays
This assay was essentially the same as previously reported [Niiya et al., Blood, 70:475-483 (1987)]. […] The plate was read with a microtiter plate reader at a wavelength of 450 nm and when the maximum-binding control wells reached an absorbance of about 1.0, the final A450 were recorded for analysis. The data were analyzed using a macro written for use with the EXCEL spreadsheet program. The mean, standard deviation, and % CV were determined for duplicate concentrations. […]

Protein sequences, listed by entry. Tags and fused reporters are not part of them. Residues count along the entry.
UniProt P05106, 27-788 limits assumed: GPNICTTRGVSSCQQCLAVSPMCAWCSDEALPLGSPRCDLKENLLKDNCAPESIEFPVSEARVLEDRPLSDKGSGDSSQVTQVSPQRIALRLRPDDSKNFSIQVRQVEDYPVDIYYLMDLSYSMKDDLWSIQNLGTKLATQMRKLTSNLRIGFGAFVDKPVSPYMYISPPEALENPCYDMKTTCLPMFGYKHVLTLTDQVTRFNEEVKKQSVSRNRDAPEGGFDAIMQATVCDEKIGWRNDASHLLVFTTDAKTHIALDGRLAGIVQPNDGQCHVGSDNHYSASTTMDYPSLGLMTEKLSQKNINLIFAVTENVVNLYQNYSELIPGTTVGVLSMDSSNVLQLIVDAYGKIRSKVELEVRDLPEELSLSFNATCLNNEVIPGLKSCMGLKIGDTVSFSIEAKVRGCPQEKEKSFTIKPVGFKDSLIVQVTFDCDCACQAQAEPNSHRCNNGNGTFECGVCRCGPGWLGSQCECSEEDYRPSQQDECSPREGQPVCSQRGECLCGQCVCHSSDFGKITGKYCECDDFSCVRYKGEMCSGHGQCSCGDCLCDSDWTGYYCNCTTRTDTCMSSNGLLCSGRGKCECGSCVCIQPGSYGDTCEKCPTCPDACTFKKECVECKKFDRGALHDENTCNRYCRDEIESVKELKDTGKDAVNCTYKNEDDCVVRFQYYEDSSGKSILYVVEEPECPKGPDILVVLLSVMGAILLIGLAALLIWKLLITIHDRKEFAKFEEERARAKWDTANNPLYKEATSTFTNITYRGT
UniProt P06756, 31-889 limits assumed: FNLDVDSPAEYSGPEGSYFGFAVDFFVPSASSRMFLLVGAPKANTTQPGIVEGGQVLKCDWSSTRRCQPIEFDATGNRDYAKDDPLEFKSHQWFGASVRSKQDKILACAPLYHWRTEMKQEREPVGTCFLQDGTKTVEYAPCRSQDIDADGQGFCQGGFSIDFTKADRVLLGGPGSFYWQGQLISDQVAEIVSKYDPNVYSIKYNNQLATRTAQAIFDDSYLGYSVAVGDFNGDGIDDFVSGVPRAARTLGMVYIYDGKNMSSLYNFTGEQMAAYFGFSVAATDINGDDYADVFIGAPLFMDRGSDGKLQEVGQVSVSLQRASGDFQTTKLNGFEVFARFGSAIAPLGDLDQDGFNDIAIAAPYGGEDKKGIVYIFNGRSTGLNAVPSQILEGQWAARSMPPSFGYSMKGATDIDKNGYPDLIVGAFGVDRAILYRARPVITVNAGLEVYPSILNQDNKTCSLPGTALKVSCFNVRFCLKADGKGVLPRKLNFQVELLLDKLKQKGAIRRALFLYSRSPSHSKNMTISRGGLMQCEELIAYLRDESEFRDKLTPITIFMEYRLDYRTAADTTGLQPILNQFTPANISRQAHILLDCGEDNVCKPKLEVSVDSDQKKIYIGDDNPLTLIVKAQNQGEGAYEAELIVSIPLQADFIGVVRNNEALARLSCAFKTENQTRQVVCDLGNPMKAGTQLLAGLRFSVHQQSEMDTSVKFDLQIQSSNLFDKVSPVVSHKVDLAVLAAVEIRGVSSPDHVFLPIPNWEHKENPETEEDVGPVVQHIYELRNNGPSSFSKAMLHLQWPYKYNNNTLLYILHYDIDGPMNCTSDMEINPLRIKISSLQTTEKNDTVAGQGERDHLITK
UniProt P06756, 891-1048 partner limits assumed: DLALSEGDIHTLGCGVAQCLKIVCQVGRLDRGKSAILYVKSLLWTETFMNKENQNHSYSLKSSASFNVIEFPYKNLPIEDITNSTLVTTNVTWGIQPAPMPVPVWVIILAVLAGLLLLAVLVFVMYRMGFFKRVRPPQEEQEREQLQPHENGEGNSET
UniProt P08514, 32-887 limits assumed: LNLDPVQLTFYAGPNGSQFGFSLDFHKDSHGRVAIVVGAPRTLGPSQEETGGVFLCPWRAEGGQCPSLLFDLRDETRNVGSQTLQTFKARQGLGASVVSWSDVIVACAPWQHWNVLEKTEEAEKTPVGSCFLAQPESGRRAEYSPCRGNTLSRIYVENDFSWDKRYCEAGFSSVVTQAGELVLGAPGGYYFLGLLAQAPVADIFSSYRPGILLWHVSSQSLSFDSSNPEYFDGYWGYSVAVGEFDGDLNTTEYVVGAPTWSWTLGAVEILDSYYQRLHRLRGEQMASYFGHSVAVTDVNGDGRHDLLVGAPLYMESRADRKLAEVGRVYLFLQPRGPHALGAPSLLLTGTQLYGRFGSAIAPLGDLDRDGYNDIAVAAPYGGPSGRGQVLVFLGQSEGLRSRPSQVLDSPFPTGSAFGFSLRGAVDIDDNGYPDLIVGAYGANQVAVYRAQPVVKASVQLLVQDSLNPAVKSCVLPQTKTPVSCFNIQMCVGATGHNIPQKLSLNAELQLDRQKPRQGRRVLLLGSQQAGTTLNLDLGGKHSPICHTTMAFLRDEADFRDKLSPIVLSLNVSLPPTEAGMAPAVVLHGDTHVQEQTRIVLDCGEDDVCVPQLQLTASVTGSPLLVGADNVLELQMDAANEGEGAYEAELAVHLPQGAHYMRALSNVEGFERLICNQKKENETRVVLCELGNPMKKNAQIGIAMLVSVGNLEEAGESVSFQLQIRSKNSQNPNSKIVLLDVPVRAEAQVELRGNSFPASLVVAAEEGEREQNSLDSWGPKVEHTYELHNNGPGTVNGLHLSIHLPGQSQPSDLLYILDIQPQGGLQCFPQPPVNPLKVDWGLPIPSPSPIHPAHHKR
UniProt P08514, 891-1039 partner limits assumed: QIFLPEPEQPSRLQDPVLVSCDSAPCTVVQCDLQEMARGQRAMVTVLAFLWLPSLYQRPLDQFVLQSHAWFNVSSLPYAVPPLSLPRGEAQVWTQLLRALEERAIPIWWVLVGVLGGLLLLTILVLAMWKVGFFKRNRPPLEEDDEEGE

Test [3] concerns the target human fibrinogen receptor (αIIbβ3) (Homo sapiens, UniProt P05106+P08514). The test is described as follows: Purified IIb/IIIa receptor assay, solid phase receptor assay. The note with it: read-out: IC50 vs αIIbβ3; in vitro. The source says:
Purified IIb/IIIa Receptor Assay
Human fibrinogen receptor (αvβ3) was purified from outdated platelets. (Pytela, R., Pierschbacher, M. D., Argraves, S., Suzuki, S., and Rouslahti, E. “Arginine-Glycine-Aspartic acid adhesion receptors”, Methods in Enzymology 144(1987):475-489.) Human vitronectin was purified from fresh frozen plasma as described in Yatohgo, T., Izumi, M., Kashiwagi, H., and Hayashi, M., “Novel purification of vitronectin from human plasma by heparin affinity chromatography,” Cell Structure and Function 13(1988):281-292. Biotinylated human vitronectin was prepared by coupling NHS-biotin from Pierce Chemical Company (Rockford, Ill.) to purified vitronectin as previously described. […]
This assay is essentially the same reported in Niiya, K., Hodson, E., Bader, R., Byers-Ward, V. Koziol, J. A., Plow, E. F. and Ruggeri, Z. M., “Increased surface expression of the membrane glycoprotein IIb/IIIa complex induced by platelet activation: Relationships to the binding of fibrinogen and platelet aggregation”, Blood 70(1987):475-483. […] The plate was read with a microtiter plate reader at a wavelength of 450 nm and when the maximum-binding control wells reached an absorbance of about 1.0, the final A450 were recorded for analysis. The data were analyzed using a macro written for use with the EXCEL™ spreadsheet program. […]

For a further test, the system named is M21 human melanoma. Nature of the test: Tumor growth inhibition, M21 human melanoma in mice. Format: in vivo, SCID mice.

Data on one compound can be found in patent publication US6372719B1, “ανβ3 integrin antagonists in combination with chemotherapeutic agents” (priority 1998, dated 2002).

The structures appear in SMILES notation.

As usually defined, the IC50 is the concentration that gives 50% inhibition. On to `O=C(O)C[C@H](NC(=O)CNC(=O)c1cc(O)cc(NC2=NCC(O)CN2)c1)c1cc(Cl)cc(Br)c1O` (some centres unmarked), for which, in the test on Rice Leydig tumor cells (administered orally, SCID mice), the Inhibition of hypercalcemia result is on record as “in a dose-dependent manner” and the “Inhibition of tumor growth” value is on record as “in a dose-dependent manner”. The compound further returned a Tumor growth inhibition with Rice Leydig tumor cells (cisplatin at maximum tolerated dose, XII 10 mg/kg PO, compared to control-treated mice) of 10%. Moreover, the “Effect on survival time” value with Rice Leydig tumor cells (tumor bearing SCID mice) was “little effect”. Besides, in test [1], the “Inhibition of endothelial cell migration” value is “dose-dependently inhibited” and the “Inhibition of endothelial cell proliferation” value is on record as “dose-dependently inhibited”. For the same compound, the Median survival time in the test with LLC tumor (cisplatin 10 mg/kg ip day 5, XII at 10 mg/kg) turned out to be 33 days. Moreover, in the test with LLC tumor (cisplatin single ip dose 10 mg/kg on day 5, XII 1 and 10 mg/kg, oral, BID from day 1), the “Effect on growth of the LLC tumor” value was “did not affect”. The Inhibition of angiogenesis result in the test on angiogenesis is listed as “significantly inhibited”. Also, in test [2], the IC50 is less than 1 nM. In test [3], the IC50 was found to be 200 nM. In the test with M21 human melanoma (SCID mice, dose range 0.2-30 mg/kg), the “Inhibition of M21 human melanoma tumor growth” value was “dose-dependently inhibited”. Besides, in the test on M21 human melanoma (XII 10 mg/kg BID PO from day 21, added to cyclophosphamide 150 mg/kg ip days 14, 16, 18), the “Reduction in final tumor volume” value is reported as 44%. Also, the “Inhibition of tumor growth with XII relative to cisplatin” value in the test with M21 human melanoma (cisplatin at a maximum tolerated dose) is recorded as “additive”.
